The text below walks through data of patent US11647993B2, “Oral fluid collector” (Research Triangle Institute, priority 2017, dated 2023).

The structures appear in SMILES notation.

A short description of the series: Stability of parent THC spiked into neat human oral fluid, with or without the reagent component. Conditions: neat human oral fluid modified with the reagent component, 2-week period. It counts as physicochemical.

`CCCCCc1cc(O)c2c(c1)OC(C)(C)[C@@H]1CCC(C)=C[C@@H]21` [THC, Δ^9-tetrahydrocannabinol]: the “stability of parent THC” value is reported as “stable”.
